The record followed here is patent publication US7166739B2, “Esters of monomethyl branched alcohols and process for preparing and using same in cosmetics and personal care products” (Finetex, Inc., priority 2004, dated 2007).

Type in all cases: physicochemical
Data set [1] in a line: Surface tension of esters (typical properties). The procedure:
(§1) An analysis of the esters of the invention, i.e., Benzoate ester (Ref. No. 130-63); Octanoate Ester (Ref. No. 130-67); and Maleate Ester (Ref. No. 134-26), was conducted as to appearance, color, percentage water, acidity, saponification value, surface tension, spreading coefficient, freezing point, refractive index and specific gravity. The results are presented in Table I which identifies typical properties of the esters of the invention.

Data set [2] in a line: Viscosity of esters (typical properties). The note with it: @ 25° C. The procedure:
as §1

The nature of data set [3]: Spreading coefficient of esters (typical properties). Also noted: unit not given here. The procedure: as §1

Turning to “C16–17 alkyl octanoate [Octanoate Ester (130-67)]”, the “Surface Tension” value in data set [1] turned out to be 32.5 dynes/cm. Moreover, the Viscosity in data set [2] is given as 44 cps. In data set [3], the “Spreading Coefficient” value is 32.5.
With “C16–C17 alkyl benzoate [Benzoate Ester (130-63)]”, the “Surface Tension” value in data set [1] is on record as 32 dynes/cm. The same substance displayed a Viscosity in data set [2] of 60 cps. Besides, the “Spreading Coefficient” value in data set [3] amounted to 33.5.
